The target in one assay is HDAC1 (Rattus norvegicus, UniProt Q4QQW4). Type of assay: biochemical. The settings on record: read-out: Liver extract B61 HDAC1 IC50.
Assay [1] relates to tubulin acetylation and Hsp70 in A2780 ovarian carcinoma cells. Nature of the assay: Western blot of acetylated tubulin and Hsp70 in A2780 cells (HDAC6 readout). Conditions: 24 h. The format is cell-based, human. In general terms: A western blot detects proteins with antibodies after separation by electrophoresis.

Protein sequences, listed by entry. Tags and fused reporters are not part of them.
UniProt Q4QQW4, whole entry: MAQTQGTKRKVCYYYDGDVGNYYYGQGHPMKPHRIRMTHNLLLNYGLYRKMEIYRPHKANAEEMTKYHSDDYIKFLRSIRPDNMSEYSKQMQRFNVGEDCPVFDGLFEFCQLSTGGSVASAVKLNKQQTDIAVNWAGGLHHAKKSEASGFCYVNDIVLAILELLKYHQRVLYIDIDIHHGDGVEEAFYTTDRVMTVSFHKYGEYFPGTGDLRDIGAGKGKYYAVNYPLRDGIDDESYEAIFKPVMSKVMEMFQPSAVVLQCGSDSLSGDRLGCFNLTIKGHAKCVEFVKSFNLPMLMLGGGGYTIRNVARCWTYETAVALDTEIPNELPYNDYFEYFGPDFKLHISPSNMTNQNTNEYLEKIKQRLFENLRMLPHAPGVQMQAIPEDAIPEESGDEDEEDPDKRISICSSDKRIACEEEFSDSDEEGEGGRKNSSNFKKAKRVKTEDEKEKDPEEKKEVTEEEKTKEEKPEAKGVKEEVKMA

In general, IC50 refers to the concentration at which inhibition is half-maximal.

SMILES strings stand for the structures. Read-outs that look alike come from different tables or passages of the source.

In the case of `Cc1[nH]c2ccccc2c1CCNCc1ccc(/C=C/C(=O)NO)cc1` [Panobinostat], the IC50 on HDAC1 is 47 ± 5 nM.
Consider `CC(/C=C/C(=O)NO)=C\[C@@H](C)C(=O)c1ccc(N(C)C)cc1` [TSA, Trichostatin A], for which the 50% inhibitory concentration (IC50) on HDAC1 (rat liver extract, substrate B61) amounted to 13.3 ± 1.4 nM.
As for `O=C(CCCCCCC(=O)Nc1ccccc1)NO` [Vorinostat, suberoylanilide hydroxamic acid], the “concentration at which tubulin acetylation (and Hsp70 induction) is evident” value in assay [1] is 100 nM.

The values above are taken from article PMC2360244 (British Journal of Cancer, 2007).
